This assay has as its system Staphylococcus aureus. Particulars: RN4220, Feces.

With GENTAMICIN, the MIC is 0.5 µg/mL.

A word on the MIC: it is the lowest concentration that inhibits growth of the organism. A low value points to a more susceptible organism.

For the origin of these results see ChEMBL document CHEMBL1649326, “First report of the multidrug resistance gene cfr and the phenicol resistance gene fexA in a Bacillus strain from swine feces” (2010).
